The values below come from patent publication US9561259B2, “Cyclosporin analogs” (priority 2010, dated 2017).

The target of data set [1] is T1, human recombinant Cyp A (Homo sapiens, UniProt P62937).
T1 construct: purchased Sigma C3805
Put plainly: Protease-free PPlase assay. As to conditions: read-out: Cyp A IC-50 (nM) Protease Free-PPlase Assay; 2 nM enzyme, 60 μM SUC-AAPF-pNA, 10° C. In kind it is biochemical. The method, then:
The protease-free PPlase assay measures the rate of cis to trans conversion of a peptide substrate catalyzed by the enzyme cyclophilin A. Addition of an inhibitor slows the catalyzed rate and a Ki value is obtained. Materials Assay Buffer:
35 mM HEPES pH 7.8, filtered through a 0.2 μm filter. 50 μM DTT was added prior to use each day and then the buffer was stored on ice.
human recombinant Cyp A (Sigma C3805) enzyme was diluted to 1 μM with enzyme dilution buffer (20 mM HEPES pH 7.8, 40% glycerol, 50 μM DTT and 1 μM BSA) and stored at −20° C.
SUC-AAPF-pNA (from Bachem AG, L-1400), 20 mg/ml prepared 0.5 M LiCl in trifluoroethanol.
All readings were taken with an Agilent 8453 Spectrophotometer which consists of a cuvette holder, stirrer and chiller to maintain a stirred cuvette temperature of 10.0±0.1° C. The temperature is monitored by the use of temperature probe. To prevent UV degradation of test compounds, the light below 290 nm was blocked using a glass slide in the light path. 1.5 ml of assay buffer was put into a 3 ml quartz cuvette and cooled to 10.0±0.1° C. while stirring (vigorous but not so fast as to produce cavitation). The inhibitor was diluted in 100% DMSO, and then added to the assay to a maximum final concentration of 0.5% DMSO in the assay. A blank spectrum was obtained, then 3 μL of enzyme was added (2 nM final concentration) and then 3 μL substrate (60 μM final concentration) added. The absorbance was measured at 330 nm for 300 s or 500 s for blank runs (NOTE: the substrate must be added in one quick injection and the measurements started immediately to minimize mixing errors).
A first order rate equation was fitted to the absorbance data, for each concentration of inhibitor, to obtain the rate constant (the first 10 to 15 seconds were excluded as mixing causes errors in this portion of curve). The catalytic rate was calculated from the enzymatic rate constant minus the background rate constant. An exponential curve was generated using the catalytic rate constants versus the inhibitor concentration to obtain the Ki value for the inhibitor.

The target of data set [2] is T2, Calcineurin (Homo sapiens, UniProt Q08209).
T2 construct: purchased Enzo Life Sciences BML-AK804
The experiment in a line: Calcineurin phosphatase (CaN) assay without Cyp A. The data set is classed as biochemical. As to conditions: read-out: CaN − Cyp A IC50. From the text: (§1) Calcineurin is a serine-threonine protein phosphatase that on activation dephosphorylates members of the nuclear factor of activated T cells (NFAT), which are important in T lymphocyte activation. Cs A bound to cyclophilin A (“Cyp A”) inhibits calcineurin activity, thus resulting in immunosuppressive effects. […] Calmodulin is also required for calcineurin activity and RII phosphopeptide is used as an efficient peptide substrate for calcineurin. We have modified the method to enable measurement of Cyp A-dependent and Cyp-A-independent inhibition of calcineurin through the addition of Cyp A in a 1:1 complex with the inhibitor. The detection of free phosphate released is based on the classic Malachite green assay. Enzo Life Sciences CaN Assay Kit: BML-AK804 […] inhibitor compounds were diluted in UPW in polypropylene low-binding 96 well plates at 5× the final assay concentration. […] Cs A inhibitor controls were also prepared to obtain a final concentration of 10 μM Cs A with and without 10 μM Cyp A. […] The assay plate was placed in an oven at 30° C. for 15 minutes to equilibrate to the reaction temperature. The reaction was started by the addition of 10 μl RH-peptide (0.15 mM final concentration). The reaction was allowed to proceed at 30° C. for a time period in which the reaction is linear for about 60 minutes. The reaction was then terminated by adding 100 μl of the Malachite Green reagent. The color was allowed to develop for 15-30 minutes at room temperature before the absorbance at 620 nm was measured using a plate reader (Molecular Devices—SpectraMax M5). The data were analyzed by subtracting ‘no Calcineurin blank’ from all the absorbance readings and plotting the background corrected absorbances against Log10 inhibitor concentration. A sigmoidal-dose response curve was fitted to the data using GraphPad Prism Software.

Data set [3] can be described thus: Epimerization in MeOH at 50° C. (500 MHz NMR). As to conditions: methanol at 50° C., conversion measured by 500 MHz NMR.
In data set [4] the target is T3, Calcineurin + Cyp A (Homo sapiens, UniProt P62937+P63098+Q08209).
T3 construct: purchased Enzo Life Sciences (kit); Sigma (Cyp A) BML-AK804; C3805
Put plainly: Calcineurin phosphatase (CaN) assay with Cyp A (1:1 complex with inhibitor). The data set is classed as biochemical. Conditions: read-out: CaN + Cyp A IC-50.
From the text: as §1

On to “[(R)-(3-(4-methyl-piperazin-1-yl)-propylthio)-Sar]^3 Cyclosporin A [Example 3]”, for which the IC50 in data set [1] was 2.8 nM; in data set [2], 8.6 µM; in data set [4], 3.9 µM. For the same substance, the “Reduction in rate of epimerization (relative to [(R)-(3-diethylaminoethylthio-Sar]^3 cyclosporin A) at position 3 (α-carbon of the 3-position amino acid (sarcosine) of Cs scaffolds)” value in data set [3] is >1,000.

As for “[(R)-(3-ethylisopropylamino-propylthio)-Sar]^3 Cyclosporin A [Example 2]”, the IC50 in data set [1] is 4.9 nM; in data set [2], 7.8 µM; in data set [4] it was 5.7 µM. The “Reduction in rate of epimerization (relative to [(R)-(3-diethylaminoethylthio-Sar]^3 cyclosporin A) at position 3 (α-carbon of the 3-position amino acid (sarcosine) of Cs scaffolds)” value in data set [3] is listed as >1,000.

As for “[(R)-(3-morpholin-4-yl-propylthio)-Sar]^3 Cyclosporin A [Example 1]”, the IC50 in data set [1] was determined as 1.7 nM; in data set [2], 3.9 µM; in data set [4], 4.2 µM. The “Reduction in rate of epimerization (relative to [(R)-(3-diethylaminoethylthio-Sar]^3 cyclosporin A) at position 3 (α-carbon of the 3-position amino acid (sarcosine) of Cs scaffolds)” value in data set [3] is on record as >1,000.
